Results from patent US7569661B2, “Polypeptide scaffolds and use thereof” (Modpro AB, priority 2002, dated 2009).

Experiments:
[1] = target: T1, human carbonic anhydrase II, HCAII (Homo sapiens, UniProt P00918); assay: Surface plasmon resonance-based steady state affinity, immobilized HCAII; format: binding
Description: The solid line represents the theoretical curve for equilibrium response as a function of peptide concentration with Kd=0.08 μM (bimolecular interaction model). Experimental data from duplicate measurements are shown.
[Taylor, P. W.; King, R. W.; Burgen, A. S. V. Biochemistry 1970, 9, 2638-2645] […] With benzenesulfonamide derivatives bearing alkyl chains of different lengths in the para position, increased affinities towards HCAII as compared to that of Ia have been reported [King, R. W.; Burgen, A. S. V. Proc. R. Soc. Lond. B 1976, 193, 107-125]. Thus, to increase the affinity of the benzenesulfonamide inhibitor, and to minimize sterical constraints upon HCAII binding that could be introduced by coupling the benzenesulfonamide ligand to the peptide, an aliphatic spacer was introduced. […] 1.4 equivalents of Id were allowed to react with 1 equivalent of KE2-P or KE3-P in 50 mM Tris-HCl buffer at pH 8.0 and room temperature. The modified peptides KE2-PL and KE3-PL were purified by reversed-phase HPLC on a Hichrom C-8-column using 0.1% TFA in 40% aqueous 2-propanol as the eluent and lyophilized. The yield was 55% and 77% for KE2-PL and KE3-PL, respectively. […]

[2] = target: T1, human carbonic anhydrase II, HCAII; assay: Fluorescence titration of peptide with HCAII (two-state / bimolecular binding model); conditions: 1 μM KE2-PL and 2 μM HCAII, based on Kd 0.02 μM
Description: The affinity of the interaction was estimated to be 0.02 μM from curve fitting using a two-state binding model.
Upon titration of 1 μM KE2-PL with 5 nM-50 μM HCAII, a sigmoid curve was obtained, FIG. 3. For the bimolecular association between KE2-PL and HCAII, the equilibrium dissociation constant Kd equals the concentration of free HCAII at the inflexion point. Kd was estimated to be 0.02 μM from the best fit to the experimental results of an equation describing the dissociation of a bimolecular complex. […] The use of an array of peptides modified with ligands of different affinities, makes measurements of analyte concentrations possible, at levels of accuracy limited, in principle, only by the number of different ligand variants available, and by the affinity range of those variants.

Substance: KE2-PL modified with Ib: KE2 with fluorescent probe and 4-carboxybenzenesulfonamide ligand attached via active ester Ib, without spacer (NAADLEAAIRHLAEKLAARGPVDAAQLAEQLAKKFEAFARAG)
- Kd, preliminary surface plasmon resonance-based affinity measurements [1]: in the μM range

Substance: KE2-PL: KE2 with dansyl probe at Lys15 and benzenesulfonamide ligand with aliphatic spacer (from Id) at Lys34 (NAADLEAAIRHLAEKLAARGPVDAAQLAEQLAKKFEAFARAG)
- fraction of peptide bound to HCAII [2]: more than 90%
